Values of other authors, collected in patent publication US4469706A, “Selective beta-2 adrenergic antagonists for the treatment of glaucoma” (priority 1982, dated 1984).
Counter-ions that a name gives are not always drawn.

Chains of the proteins cited; added tags and fusions are not shown.
UniProt P10608, whole entry: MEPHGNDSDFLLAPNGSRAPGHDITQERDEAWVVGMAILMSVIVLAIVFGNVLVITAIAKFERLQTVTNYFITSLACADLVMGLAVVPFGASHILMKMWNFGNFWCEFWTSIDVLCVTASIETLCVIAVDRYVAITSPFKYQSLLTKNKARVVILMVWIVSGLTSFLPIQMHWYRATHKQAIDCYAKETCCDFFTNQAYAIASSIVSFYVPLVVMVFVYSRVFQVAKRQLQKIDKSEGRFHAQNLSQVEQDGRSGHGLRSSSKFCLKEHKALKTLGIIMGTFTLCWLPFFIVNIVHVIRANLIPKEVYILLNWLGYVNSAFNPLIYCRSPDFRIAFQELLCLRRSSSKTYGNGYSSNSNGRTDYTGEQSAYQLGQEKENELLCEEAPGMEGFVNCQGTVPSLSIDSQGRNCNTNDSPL

Molecular target: T1, beta2 adrenergic receptor present in mammalian lung (Rattus norvegicus, UniProt P10608)
T1 construct: Washed particulate preparations of the above described tissues are suspended; host or cells: lung, washed particulate preparation
Conditions: read-out: Kd for IHYP Binding, Lung (D); cited from earlier work

Compound: CC(C)(C)NCC(O)CON=C1c2ccccc2-c2ccccc21 (stereo not shown) [IPS 339, (t-butyl-amino 3-ol-2-propyl) oximino-9 fluorene, hydrochloride]
- Kd: 500 pM
